Key:
[1] = test system: EZH2; experiment: Western blot of EZH2 in SU-DHL4 cells; format: cell-based; conditions: FIG. 33, 48 hours
[2] = test system: EZH2; experiment: Western blot of EZH2 in SU-DHL6 cells; format: cell-based; conditions: FIG. 33, 48 hours

CCN(c1cc(-c2ccc(CN3CCOCC3)cc2)cc(C(=O)NCc2c(C)cc(C)[nH]c2=O)c1C)C1CCOCC1 [EPZ-6438, reference compound]
Degradation of EZH2 [1]: little or no effect | Degradation of EZH2 [2]: little or no effect

Source: patent publication US12491252B2, “Substituted 3-amino-5-phenylbenzamide compounds as covalent inhibitors of enhancer zeste homolog 2 (EZH2) and proteolysis-targeting chimeric derivatives thereof (PROTACs) that induce degradation of EZH2” (Northwestern University, priority 2021, dated 2025)
